Assay [1] deals with Thermosynechococcus elongatus PKUAC-SCTE542 protoporphyrinogen IX oxidase CyPPO19 (SEQ ID NO: 1) variant V305L (MBP fusion) (Thermosynechococcus sichuanensis, UniProt A0A7D6JSC1, V305L). The assay can be described thus: PPO enzyme inhibition assay (IC50 for herbicides), CyPPO19 V305L fused to MBP. In kind it is biochemical.
The target in assay [2] is Thermosynechococcus elongatus PKUAC-SCTE542 protoporphyrinogen IX oxidase CyPPO19 (SEQ ID NO: 1) variant A167I (MBP fusion) (Thermosynechococcus sichuanensis, UniProt A0A7D6JSC1, A167I). The assay can be described thus: biochemical. To be noted: 50 μM protoporphyrinogen IX, pH 7.5, room temperature, 30 min, 10,000 means equivalent to or higher.
Assay [3] has as its target Thermosynechococcus elongatus PKUAC-SCTE542 protoporphyrinogen IX oxidase CyPPO19 (SEQ ID NO: 1) variant R89A (MBP fusion) (Thermosynechococcus sichuanensis, UniProt A0A7D6JSC1, R89A). Kind of assay: biochemical.
In assay [4] the target is Thermosynechococcus elongatus PKUAC-SCTE542 protoporphyrinogen IX oxidase CyPPO19 (SEQ ID NO: 1) variant V165C (MBP fusion) (Thermosynechococcus sichuanensis, UniProt A0A7D6JSC1, V165C). Kind of assay: PPO enzyme inhibition assay (IC50 for herbicides), CyPPO19 V165C fused to MBP. The class given is biochemical.
For assay [5], the target named is Thermosynechococcus elongatus PKUAC-SCTE542 protoporphyrinogen IX oxidase CyPPO19 (SEQ ID NO: 1) variant V305M (MBP fusion) (Thermosynechococcus sichuanensis, UniProt A0A7D6JSC1, V305M). Kind of assay: PPO enzyme inhibition assay (IC50 for herbicides), CyPPO19 V305M fused to MBP. The class given is biochemical.
In assay [6] the target is Thermosynechococcus elongatus PKUAC-SCTE542 protoporphyrinogen IX oxidase CyPPO19 (SEQ ID NO: 1) variant A167C (MBP fusion) (Thermosynechococcus sichuanensis, UniProt A0A7D6JSC1, A167C). The assay can be described thus: biochemical.
The target in assay [7] is T1, Thermosynechococcus elongatus PKUAC-SCTE542 protoporphyrinogen IX oxidase CyPPO19, wild type, SEQ ID NO: 1 (MBP fusion) (Thermosynechococcus sichuanensis, UniProt A0A7D6JSC1).
T1 sequence (A0A7D6JSC1 1-467): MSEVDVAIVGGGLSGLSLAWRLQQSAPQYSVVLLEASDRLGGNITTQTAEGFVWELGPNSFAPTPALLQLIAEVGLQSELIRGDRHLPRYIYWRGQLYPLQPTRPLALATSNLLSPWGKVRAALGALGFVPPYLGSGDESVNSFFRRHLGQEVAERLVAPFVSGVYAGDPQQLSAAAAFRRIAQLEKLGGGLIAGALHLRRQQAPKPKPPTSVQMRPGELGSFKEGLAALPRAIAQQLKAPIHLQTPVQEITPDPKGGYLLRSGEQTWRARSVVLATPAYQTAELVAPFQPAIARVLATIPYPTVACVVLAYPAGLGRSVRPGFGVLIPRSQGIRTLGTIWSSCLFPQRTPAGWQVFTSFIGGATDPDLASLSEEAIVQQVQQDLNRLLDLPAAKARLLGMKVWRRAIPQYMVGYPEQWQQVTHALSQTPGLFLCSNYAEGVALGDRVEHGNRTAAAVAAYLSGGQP
The assay can be described thus: PPO enzyme inhibition assay (IC50 for herbicides), CyPPO19 wild type fused to MBP. In kind it is biochemical.

Sequences of proteins named here, by UniProt entry; tags and fusion partners are left off.
UniProt A0A7D6JSC1, entry or part of it V305L: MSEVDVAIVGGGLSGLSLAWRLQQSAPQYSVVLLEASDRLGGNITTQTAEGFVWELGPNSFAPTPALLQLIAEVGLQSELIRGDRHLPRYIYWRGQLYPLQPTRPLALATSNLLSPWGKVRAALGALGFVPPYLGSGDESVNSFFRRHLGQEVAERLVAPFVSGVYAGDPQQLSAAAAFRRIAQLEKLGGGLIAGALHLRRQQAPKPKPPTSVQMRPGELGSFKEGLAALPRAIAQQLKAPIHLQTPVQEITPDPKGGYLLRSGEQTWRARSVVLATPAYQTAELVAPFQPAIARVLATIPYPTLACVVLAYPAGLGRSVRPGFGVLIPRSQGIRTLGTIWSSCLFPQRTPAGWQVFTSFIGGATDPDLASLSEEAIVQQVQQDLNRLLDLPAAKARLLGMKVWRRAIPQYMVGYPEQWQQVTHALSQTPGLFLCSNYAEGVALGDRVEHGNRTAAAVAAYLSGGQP
UniProt A0A7D6JSC1, entry or part of it A167I: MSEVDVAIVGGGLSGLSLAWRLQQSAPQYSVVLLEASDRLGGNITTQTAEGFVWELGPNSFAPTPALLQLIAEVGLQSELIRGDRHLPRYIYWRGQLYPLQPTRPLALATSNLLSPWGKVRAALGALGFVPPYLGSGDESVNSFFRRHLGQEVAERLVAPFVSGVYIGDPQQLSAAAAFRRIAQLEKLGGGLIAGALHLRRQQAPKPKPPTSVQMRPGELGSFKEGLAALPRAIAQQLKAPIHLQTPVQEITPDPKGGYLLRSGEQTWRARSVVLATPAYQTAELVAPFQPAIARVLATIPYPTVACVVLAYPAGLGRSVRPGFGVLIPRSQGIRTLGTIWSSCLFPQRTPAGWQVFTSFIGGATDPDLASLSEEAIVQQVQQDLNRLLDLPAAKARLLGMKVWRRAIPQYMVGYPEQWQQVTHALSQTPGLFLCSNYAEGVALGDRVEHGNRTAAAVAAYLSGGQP
UniProt A0A7D6JSC1, entry or part of it R89A: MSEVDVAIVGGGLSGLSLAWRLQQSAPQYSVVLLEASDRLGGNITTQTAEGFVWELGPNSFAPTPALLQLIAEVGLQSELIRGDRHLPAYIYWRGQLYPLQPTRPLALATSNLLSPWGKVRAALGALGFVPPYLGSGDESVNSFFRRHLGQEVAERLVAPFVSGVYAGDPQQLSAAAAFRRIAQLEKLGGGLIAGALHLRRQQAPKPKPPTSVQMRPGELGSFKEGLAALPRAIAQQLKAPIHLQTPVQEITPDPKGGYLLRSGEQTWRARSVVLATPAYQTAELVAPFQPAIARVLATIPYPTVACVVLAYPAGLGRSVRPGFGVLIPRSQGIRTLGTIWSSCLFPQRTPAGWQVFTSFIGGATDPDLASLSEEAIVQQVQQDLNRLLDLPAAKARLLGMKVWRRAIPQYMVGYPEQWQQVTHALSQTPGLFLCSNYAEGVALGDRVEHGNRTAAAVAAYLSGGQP
UniProt A0A7D6JSC1, entry or part of it V165C: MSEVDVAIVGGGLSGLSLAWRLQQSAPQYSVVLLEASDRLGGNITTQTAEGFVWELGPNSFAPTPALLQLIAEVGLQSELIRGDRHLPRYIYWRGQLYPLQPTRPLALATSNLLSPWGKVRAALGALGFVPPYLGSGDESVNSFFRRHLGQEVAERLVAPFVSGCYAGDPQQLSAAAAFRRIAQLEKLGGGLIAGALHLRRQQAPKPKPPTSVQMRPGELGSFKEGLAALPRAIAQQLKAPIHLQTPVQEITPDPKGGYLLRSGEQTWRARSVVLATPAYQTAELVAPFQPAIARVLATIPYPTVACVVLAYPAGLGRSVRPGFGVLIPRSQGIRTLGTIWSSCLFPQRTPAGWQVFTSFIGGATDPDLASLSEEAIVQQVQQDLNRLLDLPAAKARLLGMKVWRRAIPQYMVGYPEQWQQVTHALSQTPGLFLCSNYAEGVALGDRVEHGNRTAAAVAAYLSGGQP
UniProt A0A7D6JSC1, entry or part of it V305M: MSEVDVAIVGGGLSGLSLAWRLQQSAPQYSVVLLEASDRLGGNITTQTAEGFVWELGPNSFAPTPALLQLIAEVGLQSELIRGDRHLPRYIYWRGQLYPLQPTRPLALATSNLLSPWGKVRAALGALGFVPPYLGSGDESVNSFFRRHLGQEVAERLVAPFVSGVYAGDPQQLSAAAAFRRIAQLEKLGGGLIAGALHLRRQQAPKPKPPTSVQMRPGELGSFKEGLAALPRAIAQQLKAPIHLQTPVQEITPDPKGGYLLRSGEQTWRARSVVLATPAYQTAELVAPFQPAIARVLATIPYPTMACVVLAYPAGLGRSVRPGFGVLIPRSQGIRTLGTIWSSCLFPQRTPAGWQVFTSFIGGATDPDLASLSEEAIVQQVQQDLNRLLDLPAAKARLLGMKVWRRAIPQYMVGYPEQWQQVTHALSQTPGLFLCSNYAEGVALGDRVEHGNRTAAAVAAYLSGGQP
UniProt A0A7D6JSC1, entry or part of it A167C: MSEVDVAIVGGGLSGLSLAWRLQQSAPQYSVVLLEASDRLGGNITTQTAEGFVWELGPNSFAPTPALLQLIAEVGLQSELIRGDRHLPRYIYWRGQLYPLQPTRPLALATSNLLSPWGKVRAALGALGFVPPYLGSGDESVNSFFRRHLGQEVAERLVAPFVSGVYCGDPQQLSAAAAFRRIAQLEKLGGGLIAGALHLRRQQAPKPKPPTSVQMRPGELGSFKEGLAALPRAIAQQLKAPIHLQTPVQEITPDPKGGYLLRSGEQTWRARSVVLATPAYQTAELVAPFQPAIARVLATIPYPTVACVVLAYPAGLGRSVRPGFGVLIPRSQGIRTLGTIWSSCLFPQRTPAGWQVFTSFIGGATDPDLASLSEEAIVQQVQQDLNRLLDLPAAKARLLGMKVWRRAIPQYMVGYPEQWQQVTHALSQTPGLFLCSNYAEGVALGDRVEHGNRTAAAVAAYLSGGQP
UniProt A0A7D6JSC1, entry or part of it V165S: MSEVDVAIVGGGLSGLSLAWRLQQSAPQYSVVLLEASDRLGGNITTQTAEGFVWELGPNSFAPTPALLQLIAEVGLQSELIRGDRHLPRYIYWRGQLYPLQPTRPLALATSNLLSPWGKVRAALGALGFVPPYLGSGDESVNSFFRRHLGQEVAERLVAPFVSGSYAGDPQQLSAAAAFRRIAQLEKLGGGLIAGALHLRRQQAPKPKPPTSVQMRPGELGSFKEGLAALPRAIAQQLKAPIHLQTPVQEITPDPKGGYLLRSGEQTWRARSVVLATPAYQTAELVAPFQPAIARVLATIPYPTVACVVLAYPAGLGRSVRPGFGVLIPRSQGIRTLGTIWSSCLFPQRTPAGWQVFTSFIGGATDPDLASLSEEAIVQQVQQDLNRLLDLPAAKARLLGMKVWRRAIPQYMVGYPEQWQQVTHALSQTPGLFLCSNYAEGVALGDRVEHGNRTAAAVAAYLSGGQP
UniProt A0A7D6JSC1, entry or part of it A167L: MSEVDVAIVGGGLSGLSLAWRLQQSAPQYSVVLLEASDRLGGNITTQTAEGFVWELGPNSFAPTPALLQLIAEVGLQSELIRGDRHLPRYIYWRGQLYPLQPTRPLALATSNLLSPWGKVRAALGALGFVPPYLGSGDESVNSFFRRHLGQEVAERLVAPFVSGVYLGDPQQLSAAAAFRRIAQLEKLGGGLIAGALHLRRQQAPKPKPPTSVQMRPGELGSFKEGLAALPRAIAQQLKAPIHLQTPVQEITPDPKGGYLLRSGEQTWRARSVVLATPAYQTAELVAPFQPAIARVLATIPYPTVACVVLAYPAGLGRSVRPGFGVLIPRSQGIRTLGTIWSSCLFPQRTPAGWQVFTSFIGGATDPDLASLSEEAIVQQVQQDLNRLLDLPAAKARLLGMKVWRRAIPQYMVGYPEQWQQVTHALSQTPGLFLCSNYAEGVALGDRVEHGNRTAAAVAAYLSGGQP

Assay [8] has as its target Thermosynechococcus elongatus PKUAC-SCTE542 protoporphyrinogen IX oxidase CyPPO19 (SEQ ID NO: 1) variant V165S (MBP fusion) (Thermosynechococcus sichuanensis, UniProt A0A7D6JSC1, V165S). The assay can be described thus: biochemical. To be noted: 50 μM protoporphyrinogen IX, pH 7.5, room temperature, 30 min, 10,000 means equivalent to or higher.
Assay [9] has as its target Thermosynechococcus elongatus PKUAC-SCTE542 protoporphyrinogen IX oxidase CyPPO19 (SEQ ID NO: 1) variant A167L (MBP fusion) (Thermosynechococcus sichuanensis, UniProt A0A7D6JSC1, A167L). Kind of assay: biochemical.

For orientation: IC50 means the point on the concentration scale where inhibition reaches its midpoint. Regarding `Cc1nn(-c2cc(NS(C)(=O)=O)c(Cl)cc2Cl)c(=O)n1C(F)F` [Sulfentrazone], the IC50 turned out to be 0.806 µM in assay [1]; 3.52 µM in assay [2]; 1.38 µM in assay [3]; 2.54 µM in assay [4]; 0.693 µM in [5]; 2.24 µM in [6]. Also, the IC50 is 0.516 µM in assay [7], 1.21 µM in [8] and at least 10 µM in [9].
